Assay results reported in PMC5891061, “Electrophysiological mechanisms of vandetanib-induced cardiotoxicity: Comparison of action potentials in rabbit Purkinje fibers and pluripotent stem cell-derived cardiomyocytes” (PLoS ONE, 2018).

Test system: rabbit Purkinje fibers
Assay: Action potential recording in rabbit Purkinje fiber
Details: 1 μM, 1 Hz pacing

COc1cc2c(Nc3ccc(Br)cc3F)ncnc2cc1OCC1CCN(C)CC1 [Vandetanib]
APD50: 249.5 ± 18.9 ms
